Assay results taken from PubChem BioAssay AID717 (Columbia University Molecular Screening Center, 2007).
The entries are a selection whose mix differs from that of the whole data set. The source made the active and inactive calls. No stated cut-off is given here; in the data, active means activation above about 37%; inactive means the rest.

Protein sequences, listed by entry. Tags and fused reporters are not part of them.
UniProt P34913, whole entry: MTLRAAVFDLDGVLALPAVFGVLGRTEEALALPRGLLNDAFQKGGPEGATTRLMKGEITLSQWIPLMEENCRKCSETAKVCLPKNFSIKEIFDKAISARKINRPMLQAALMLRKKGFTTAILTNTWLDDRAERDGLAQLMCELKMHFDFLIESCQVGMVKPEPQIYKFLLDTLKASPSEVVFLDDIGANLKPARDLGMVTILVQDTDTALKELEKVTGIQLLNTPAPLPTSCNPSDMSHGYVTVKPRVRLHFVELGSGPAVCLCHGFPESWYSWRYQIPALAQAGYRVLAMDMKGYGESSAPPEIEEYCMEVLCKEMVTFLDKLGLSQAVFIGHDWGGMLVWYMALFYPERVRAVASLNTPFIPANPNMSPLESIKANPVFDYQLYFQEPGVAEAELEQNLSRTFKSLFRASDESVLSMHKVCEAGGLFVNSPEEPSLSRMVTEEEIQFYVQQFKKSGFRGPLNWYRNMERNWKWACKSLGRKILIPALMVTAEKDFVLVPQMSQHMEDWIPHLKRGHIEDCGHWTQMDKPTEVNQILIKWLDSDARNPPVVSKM

Target: Bifunctional epoxide hydrolase 2 (Homo sapiens) (UniProt P34913)
Assay: soluble epoxide hydrolase activators, primary screen, biochemical, human sEH (AID 717)
Settings: purified human sEH enzymatic activity, activator screen; at 2 µM; stronger effect = higher value

Row | Structure (SMILES) | activation
1 | CCN(CC)CC(O)COC(=O)C(O)(c1ccccc1)C1CCCCC1 (centres undefined) | inactive: 12.8%
2 | COc1ccccc1OP(C)(=O)Nc1c(C)n(C)n(-c2ccccc2)c1=O (centres undefined) | inactive: -4.1%
3 | CP(=O)(Oc1ccccc1)N1CCOC1=O (centres undefined) | inactive: 3.7%
4 | CC(C)(C)c1ccc(OP(C)(=O)O)cc1 | inactive: -2.1%
5 | CP(=O)(Nc1ccc(Cl)cc1)Oc1ccc(F)cc1 (centres undefined) | inactive: -7.6%
6 | CP(=O)(OC12CC3CC(CC(C3)C1)C2)OC12CC3CC(CC(C3)C1)C2 | inactive: 12.2%
7 | COc1ccccc1OP(C)(=O)Nc1ccc(C)c(C)c1 (centres undefined) | inactive: 6.8%
8 | Cc1nc2ccc3ccccc3c2o1.O=[N+]([O-])c1cc([N+](=O)[O-])c(O)c([N+](=O)[O-])c1 | inactive: 6.5%
9 | COc1ccc(OP(C)(=O)Nc2ccccn2)cc1 (centres undefined) | inactive: 0.7%
10 | CN(C)CCOC(=O)C(O)(c1ccccc1)C1CCCC1 (centres undefined) | inactive: 23.2%
11 | Cc1c(NP(C)(=O)Oc2ccc(C(C)C)cc2)c(=O)n(-c2ccccc2)n1C (centres undefined) | inactive: -7.5%
12 | CP(=O)(Nc1ccccn1)Oc1ccccc1 (centres undefined) | inactive: -7.4%
13 | CCc1ccc(OP(C)(=O)O)cc1 | inactive: -5.6%
14 | CP(=O)(Nc1ccccc1F)Oc1ccccc1 (centres undefined) | inactive: 2.7%
15 | CCN(CC)CCCOC(=O)C(O)(c1ccccc1)C1CCCCC1 (centres undefined) | inactive: -3.5%
16 | CP(=O)(Nc1ccccc1)Oc1ccc(F)cc1 (centres undefined) | inactive: 10.9%
17 | COc1ccc(OP(C)(=O)Nc2cccc(Br)c2)cc1 (centres undefined) | inactive: -4.9%
18 | CN(C)CCOC(=O)C(O)(c1ccccc1)C1CCCCC1 (centres undefined) | inactive: -12.1%
19 | CCOP(C)(=S)SCC(=O)NC(C)(CC)C(=O)O (centres undefined) | inactive: -1.3%
20 | CP(=O)(Nc1ccc2c(c1)OCCO2)Oc1ccccc1 (centres undefined) | inactive: 2.7%
21 | Cc1nc2ccc3ccccc3c2s1.O=[N+]([O-])c1cc([N+](=O)[O-])c(O)c([N+](=O)[O-])c1 | inactive: -11.2%
22 | COc1ccccc1OP(C)(=O)Nc1c(C)cccc1C (centres undefined) | inactive: -6%
23 | Cc1cc(C)cc(OP(C)(=O)Nc2ccc(C)cc2C)c1 (centres undefined) | inactive: -35.5%
24 | Cc1ccc(C)c(NP(C)(=O)Oc2ccccc2)c1 (centres undefined) | inactive: 24.6%
25 | Cc1cc(C)cc(OP(C)(=O)Nc2ccccn2)c1 (centres undefined) | inactive: -11.1%
26 | COc1ccc(OP(C)(=O)Nc2cccc(F)c2)cc1 (centres undefined) | inactive: -2.6%
27 | CP(=S)(Nn1cnnc1)Oc1ccccc1 (centres undefined) | inactive: -0.6%
28 | CP(=O)(NC(=O)Nc1ccccc1)Oc1ccccc1 (centres undefined) | inactive: 6.8%
29 | CP(=O)(Nc1ccccn1)Oc1ccc(Cl)cc1 (centres undefined) | inactive: 0.5%
